PMC10878397, “Development of Potent Dual BET/HDAC Inhibitors via Pharmacophore Merging and Structure-Guided Optimization” (ACS Chemical Biology, 2024)
Like-named read-outs stand apart in the source and are kept apart here.

Sequences of proteins named here, by UniProt entry; tags and fusion partners are left off.
UniProt Q13547, whole entry: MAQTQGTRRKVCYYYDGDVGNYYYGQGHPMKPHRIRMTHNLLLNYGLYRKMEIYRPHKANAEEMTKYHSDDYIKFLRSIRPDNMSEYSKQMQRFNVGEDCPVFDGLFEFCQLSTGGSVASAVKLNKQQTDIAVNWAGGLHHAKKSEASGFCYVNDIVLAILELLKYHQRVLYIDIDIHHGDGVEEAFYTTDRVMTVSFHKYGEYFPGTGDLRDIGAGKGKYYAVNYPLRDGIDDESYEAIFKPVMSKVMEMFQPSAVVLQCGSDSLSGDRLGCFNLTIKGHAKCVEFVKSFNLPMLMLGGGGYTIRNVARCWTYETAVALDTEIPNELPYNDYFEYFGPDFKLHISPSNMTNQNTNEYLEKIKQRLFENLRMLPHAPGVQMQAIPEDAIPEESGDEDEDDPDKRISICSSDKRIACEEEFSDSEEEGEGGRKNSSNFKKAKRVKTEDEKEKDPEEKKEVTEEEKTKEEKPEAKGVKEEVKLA
UniProt Q92769, whole entry: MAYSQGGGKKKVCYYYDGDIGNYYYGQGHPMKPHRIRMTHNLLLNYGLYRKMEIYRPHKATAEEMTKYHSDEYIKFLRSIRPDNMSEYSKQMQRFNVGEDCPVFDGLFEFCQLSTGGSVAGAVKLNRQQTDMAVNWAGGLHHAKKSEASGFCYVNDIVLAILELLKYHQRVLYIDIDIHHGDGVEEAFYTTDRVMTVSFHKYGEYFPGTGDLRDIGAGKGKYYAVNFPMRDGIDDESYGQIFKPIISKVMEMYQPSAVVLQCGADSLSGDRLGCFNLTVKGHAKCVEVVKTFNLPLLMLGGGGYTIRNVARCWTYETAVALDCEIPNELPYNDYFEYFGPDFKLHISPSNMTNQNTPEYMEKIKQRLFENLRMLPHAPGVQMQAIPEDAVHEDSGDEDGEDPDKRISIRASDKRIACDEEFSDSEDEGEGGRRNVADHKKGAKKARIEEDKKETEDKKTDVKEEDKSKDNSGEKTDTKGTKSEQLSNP

Experiments:
HDAC1 = HDAC1 (Homo sapiens, UniProt Q13547); assay: NanoBRET target engagement assay (HEK293T); format: cell-based; conditions: read-out: NanoBRET EC50 HDAC1
HDAC2 = HDAC2 (Homo sapiens, UniProt Q92769); assay: NanoBRET target engagement assay (HEK293T); format: cell-based; conditions: read-out: NanoBRET EC50 HDAC2

Measured: EC50

Cc1sc2c(c1C)C(c1ccc(Cl)cc1)=N[C@@H](CC(=O)OC(C)(C)C)c1nnc(C)n1-2
> 50 µM: HDAC1; intact cells | HDAC1; lysed cells (digitonin) | HDAC2; intact cells | HDAC2; lysed cells (digitonin)
